Test results: PubChem BioAssay (NCI)
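Compound exposure: 48 hours, 5 concentrations, 96-well plates. At the GI50, growth is halved.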

What was measured:
Test in all cases: NCI-60 cell line screen, 48 h; in the data active means GI50 below about 0.43 µM; inactive means the rest
HCC-2998 colon = test system: HCC-2998 colon
LXFL 529 NSCLC = test system: LXFL 529 NSCLC
KM20L2 colon = test system: KM20L2 colon
CCRF-CEM leukemia = test system: CCRF-CEM leukemia
UO-31 renal = test system: UO-31 renal
U251 CNS = test system: U251 CNS
UACC-62 melanoma = test system: UACC-62 melanoma
M19-MEL melanoma = test system: M19-MEL melanoma
M14 melanoma = test system: M14 melanoma
NCI-H522 lung = test system: NCI-H522 lung
HOP-18 NSCLC = test system: HOP-18 NSCLC
ACHN renal = test system: ACHN renal
RPMI-8226 leukemia = test system: RPMI-8226 leukemia
EKVX NSCLC = test system: EKVX NSCLC
MOLT-4 leukemia = test system: MOLT-4 leukemia
A549 NSCLC = test system: A549 NSCLC
OVCAR-8 ovarian = test system: OVCAR-8 ovarian
SNB-75 CNS = test system: SNB-75 CNS
HL-60(TB) leukemia = test system: HL-60(TB) leukemia
SK-MEL-28 melanoma = test system: SK-MEL-28 melanoma
DMS 273 small cell lung = test system: DMS 273 small cell lung
SNB-19 CNS = test system: SNB-19 CNS
KM12 colon = test system: KM12 colon
SN12C renal = test system: SN12C renal
IGROV1 ovarian = test system: IGROV1 ovarian
RXF-631 renal = test system: RXF-631 renal
HOP-92 NSCLC = test system: HOP-92 NSCLC
SF-539 CNS = test system: SF-539 CNS
SR leukemia = test system: SR leukemia
DMS 114 small cell lung = test system: DMS 114 small cell lung
XF 498 CNS = test system: XF 498 CNS
HOP-62 NSCLC = test system: HOP-62 NSCLC
A498 renal = test system: A498 renal
SNB-78 CNS = test system: SNB-78 CNS
SK-OV-3 ovarian = test system: SK-OV-3 ovarian
HCT-116 colon = test system: HCT-116 colon
SF-295 CNS = test system: SF-295 CNS
SW-620 colon = test system: SW-620 colon
NCI-H23 lung = test system: NCI-H23 lung
OVCAR-5 ovarian = test system: OVCAR-5 ovarian
OVCAR-3 ovarian = test system: OVCAR-3 ovarian
DLD-1 colon = test system: DLD-1 colon
SK-MEL-5 melanoma = test system: SK-MEL-5 melanoma
UACC-257 melanoma = test system: UACC-257 melanoma
OVCAR-4 ovarian = test system: OVCAR-4 ovarian
HT29 colon = test system: HT29 colon
CAKI-1 renal = test system: CAKI-1 renal
NCI-H322M lung = test system: NCI-H322M lung
TK-10 renal = test system: TK-10 renal
RXF 393 renal = test system: RXF 393 renal
HCT-15 colon = test system: HCT-15 colon
K-562 leukemia = test system: K-562 leukemia
786-0 renal = test system: 786-0 renal
SF-268 CNS = test system: SF-268 CNS
NCI-H460 lung = test system: NCI-H460 lung

Measured: GI50

Cc1ccccc1NC1CC(C)(C)NC(C)(C)C1
inactive: HCC-2998 colon > 100 µM | LXFL 529 NSCLC > 100 µM | KM20L2 colon > 100 µM | CCRF-CEM leukemia > 100 µM | UO-31 renal 42.3 µM | U251 CNS > 100 µM | UACC-62 melanoma > 100 µM | M19-MEL melanoma > 100 µM | M14 melanoma > 100 µM | NCI-H522 lung > 100 µM | HOP-18 NSCLC > 100 µM | ACHN renal > 100 µM | RPMI-8226 leukemia > 100 µM | EKVX NSCLC > 100 µM | MOLT-4 leukemia > 100 µM | A549 NSCLC > 100 µM | OVCAR-8 ovarian > 100 µM | SNB-75 CNS > 100 µM | HL-60(TB) leukemia 88.6 µM | SK-MEL-28 melanoma > 100 µM | DMS 273 small cell lung > 100 µM | SNB-19 CNS > 100 µM | KM12 colon > 100 µM | SN12C renal > 100 µM | IGROV1 ovarian > 100 µM | RXF-631 renal > 100 µM | HOP-92 NSCLC > 100 µM | SF-539 CNS > 100 µM | SR leukemia > 100 µM | DMS 114 small cell lung > 100 µM | XF 498 CNS > 100 µM | HOP-62 NSCLC > 100 µM | A498 renal > 100 µM | SNB-78 CNS > 100 µM | SK-OV-3 ovarian > 100 µM | HCT-116 colon > 100 µM | SF-295 CNS > 100 µM | SW-620 colon > 100 µM | NCI-H23 lung > 100 µM | OVCAR-5 ovarian > 100 µM | OVCAR-3 ovarian > 100 µM | DLD-1 colon > 100 µM | SK-MEL-5 melanoma > 100 µM | UACC-257 melanoma > 100 µM | OVCAR-4 ovarian > 100 µM | HT29 colon > 100 µM | CAKI-1 renal > 100 µM | NCI-H322M lung > 100 µM | TK-10 renal > 100 µM | RXF 393 renal 64.6 µM | HCT-15 colon > 100 µM | K-562 leukemia > 100 µM | 786-0 renal > 100 µM | SF-268 CNS > 100 µM | NCI-H460 lung > 100 µM
